ChEMBL document CHEMBL6182939, “Searching for Synthetic Opioid Rescue Agents. 2: Identification of an Ultra-Potent Synthetic Opioid Rescue Agent” (J Med Chem, 2025)

Experiments:
[1] = Metabolic stability in human liver microsomes assessed as half life; assay type: ADME, Microsome
[2] = Metabolic stability in mouse liver microsomes assessed as half life; assay type: ADME, Microsome

CO[C@]12CC[C@@]3(C[C@@H]1C(C)(C)O)[C@H]1Cc4ccc(O)c5c4[C@@]3(CCN1CC1CC1)[C@H]2O5
t1/2 [1]: 4.8 min | t1/2 [2]: < 2.5 min
